From US20020013314A1, “3,4-dihydro-2H-benzo[1,4]oxazine inhibitors of factor Xa” (priority 2000, published 2002)
Like-named read-outs stand apart in the source and are kept apart here.

The chains behind the UniProt entries cited, without tags or fusion partners. Residues count along the entry.
UniProt P00742, 41-179 limits assumed: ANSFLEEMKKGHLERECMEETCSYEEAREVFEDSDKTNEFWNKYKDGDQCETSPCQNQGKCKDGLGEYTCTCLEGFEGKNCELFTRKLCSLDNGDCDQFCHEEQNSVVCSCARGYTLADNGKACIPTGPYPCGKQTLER
UniProt P00742, 235-488 limits assumed: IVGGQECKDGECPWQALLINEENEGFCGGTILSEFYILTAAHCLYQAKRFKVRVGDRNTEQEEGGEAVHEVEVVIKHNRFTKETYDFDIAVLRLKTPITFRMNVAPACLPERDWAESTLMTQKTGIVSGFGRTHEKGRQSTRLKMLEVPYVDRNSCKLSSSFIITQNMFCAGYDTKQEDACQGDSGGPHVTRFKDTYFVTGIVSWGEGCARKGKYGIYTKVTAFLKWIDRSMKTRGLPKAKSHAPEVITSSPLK
UniProt P12259, 29-737 partner limits assumed: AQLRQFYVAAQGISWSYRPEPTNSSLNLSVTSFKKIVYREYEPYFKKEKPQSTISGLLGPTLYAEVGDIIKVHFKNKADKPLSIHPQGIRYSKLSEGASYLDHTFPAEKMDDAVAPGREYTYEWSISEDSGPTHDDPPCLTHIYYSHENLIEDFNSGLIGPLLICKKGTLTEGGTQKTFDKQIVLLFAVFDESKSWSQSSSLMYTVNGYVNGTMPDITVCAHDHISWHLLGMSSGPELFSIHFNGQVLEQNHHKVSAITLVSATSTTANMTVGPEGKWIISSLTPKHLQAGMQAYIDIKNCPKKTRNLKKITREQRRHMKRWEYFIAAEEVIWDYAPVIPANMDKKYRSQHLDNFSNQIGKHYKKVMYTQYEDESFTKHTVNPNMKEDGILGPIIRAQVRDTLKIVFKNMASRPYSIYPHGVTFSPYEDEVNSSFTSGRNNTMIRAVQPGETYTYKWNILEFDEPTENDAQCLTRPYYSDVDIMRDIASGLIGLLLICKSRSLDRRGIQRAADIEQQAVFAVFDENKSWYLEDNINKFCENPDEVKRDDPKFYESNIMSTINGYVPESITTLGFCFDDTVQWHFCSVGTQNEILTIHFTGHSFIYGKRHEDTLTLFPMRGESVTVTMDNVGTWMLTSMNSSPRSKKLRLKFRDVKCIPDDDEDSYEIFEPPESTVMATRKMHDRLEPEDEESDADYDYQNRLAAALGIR
UniProt P12259, 1574-2224 partner limits assumed: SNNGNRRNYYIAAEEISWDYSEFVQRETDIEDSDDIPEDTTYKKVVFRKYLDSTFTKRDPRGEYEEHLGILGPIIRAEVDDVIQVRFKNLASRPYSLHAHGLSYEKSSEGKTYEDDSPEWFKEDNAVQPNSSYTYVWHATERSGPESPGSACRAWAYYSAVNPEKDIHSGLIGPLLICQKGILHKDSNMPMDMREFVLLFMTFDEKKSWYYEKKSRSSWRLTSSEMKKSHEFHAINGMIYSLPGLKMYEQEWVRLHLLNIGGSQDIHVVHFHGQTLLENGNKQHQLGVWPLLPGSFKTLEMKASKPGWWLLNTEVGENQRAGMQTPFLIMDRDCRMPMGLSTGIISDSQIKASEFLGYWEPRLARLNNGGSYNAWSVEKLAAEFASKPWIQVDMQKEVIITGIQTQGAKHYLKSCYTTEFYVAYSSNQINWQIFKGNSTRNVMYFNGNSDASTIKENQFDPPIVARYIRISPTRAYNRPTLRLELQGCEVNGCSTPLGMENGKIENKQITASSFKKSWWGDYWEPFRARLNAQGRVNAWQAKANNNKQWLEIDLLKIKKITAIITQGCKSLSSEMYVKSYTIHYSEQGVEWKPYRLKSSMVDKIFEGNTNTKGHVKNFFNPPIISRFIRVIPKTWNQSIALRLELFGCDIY

Tests used:
[1] = molecular target: factor Xa (Homo sapiens, UniProt P00742); test: factor Xa amidolytic assay (chromogenic substrate S-2765); conditions: read-out: IC50 (nM) Factor Xa
[2] = molecular target: thrombin (Homo sapiens, UniProt P00734); test: thrombin amidolytic assay (Chromozym TH); conditions: read-out: IC50 (nM) Thrombin; Table 5
[3] = molecular target: prothrombinase complex (Homo sapiens, UniProt P00742); test: prothrombinase inhibition assay (plasma free system, Chromozym TH); format: biochemical; conditions: read-out: IC50 (nM) Prothrombinase; Table 5

IC50 ([1]; Table 4) [nM]	SMILES	IC50 ([1]; Table 5) [nM]	IC50 [2] [nM]	IC50 [3] [nM]
2.2	CCn1c(CN2C(=O)COc3cc(OC4CCN(C(C)=N)CC4)ccc32)cc2ccc(C(=N)N)cc21	–	–	–
–	N=C(N)c1cccc(C(=O)Nc2ccc3c(c2)OCC(=O)N3Cc2ccc3ccc(C(=N)N)cc3c2)c1	1760	106000	56600
